US7608281B2, “Composition and use of RAR antagonists for promoting chondrogenesis” (T. Michael Underhill, priority 1999, dated 2009)

Key:
[1] = tested on: transgenic fore limb micromass cultures; test: Cartilage nodule formation in transgenic (caRARα) limb bud micromass cultures; type: cell-based, murine; conditions: 10 ng/ml BMP-2, six days, vs untreated
Experimental: Micromass cultures were prepared from murine E11.25 to E11.75 fore and hind limb buds as previously described with the following modifications (Cash et al. (1997) J. Cell Biol. 136, 445-457). After proteolytic digestion cells were filtered through a Cell Sieve ([…], Falcon) to obtain a single cell suspension. Culture media (40% Dulbecco's modified Eagle's medium, 60% F12 was supplemented with fetal bovine serum to 10%, Gibco-BRL) was changed daily. BMP-2 or -4 (Genetics Institutes), AGN 194301 (Allergan Pharmaceuticals) and/or purified Xenopus noggin protein was added to culture media at a concentration of 10 ng/ml, 1 μM and 10 ng/ml, respectively. Addition/removal experiments included either adding or removing supplemented media on the indicated culture day, 24 hours after culture initiation was considered day 1. To detect transgene-expressing cells, cultures were fixed stained as previously described, with magenta-gal (BioSynth International Inc.) being substituted for X-gal. This was followed by alcian blue staining for cartilage-specific glycosaminoglycans. Alcian blue staining of magenta-gal stained cultures turned the red precipitate to a purple color, this is a result of incubating magenta-gal stained cells at pH 1. This double-staining technique enables transgene-expressing cells to be localized with respect to alcian blue stained cartilage nodules. […]

[2] = tested on: wild-type limb mesenchyme micromass cultures; test: Cartilage nodule formation in wild-type limb bud micromass cultures (alcian blue staining); type: cell-based, murine
Experimental: Micromass cultures were prepared from murine E11.25 to E11.75 fore and hind limb buds as previously described with the following modifications (Cash et al. (1997) J. Cell Biol. 136, 445-457). After proteolytic digestion cells were filtered through a Cell Sieve ([…], Falcon) to obtain a single cell suspension. Culture media (40% Dulbecco's modified Eagle's medium, 60% F12 was supplemented with fetal bovine serum to 10%, Gibco-BRL) was changed daily. BMP-2 or -4 (Genetics Institutes), AGN 194301 (Allergan Pharmaceuticals) and/or purified Xenopus noggin protein was added to culture media at a concentration of 10 ng/ml, 1 μM and 10 ng/ml, respectively. Addition/removal experiments included either adding or removing supplemented media on the indicated culture day, 24 hours after culture initiation was considered day 1. To detect transgene-expressing cells, cultures were fixed stained as previously described, with magenta-gal (BioSynth International Inc.) being substituted for X-gal. This was followed by alcian blue staining for cartilage-specific glycosaminoglycans. Alcian blue staining of magenta-gal stained cultures turned the red precipitate to a purple color, this is a result of incubating magenta-gal stained cells at pH 1. This double-staining technique enables transgene-expressing cells to be localized with respect to alcian blue stained cartilage nodules.

B1: BMP-2: bone morphogenetic protein 2 (Genetics Institutes) (protein, UniProt P12643 283-396, looked up)
Bone morphogenetic protein 2: QAKHKQRKRLKSSCKRHPLYVDFSDVGWNDWIVAPPGYHAFYCHGECPFPLADHLNSTNHAIVQTLVNSVNSKIPKACCVPTELSAISMLYLDENEKVVLKNYQDMVVEGCGCR
[1]
  increase in number of cartilage nodules: ~115%
[2]; 10 ng/ml BMP-2, six days, wild-type fore limb cultures, vs untreated
  increase in number of cartilage nodules: ~125%
[2]; BMP-2 alone 10 ng/ml, cultures from the same limb buds, FIG. 5M
  increase in nodule number: ~45%
